This passage reports IC50 results from ChEMBL document CHEMBL4007392, “Modulating Mineralocorticoid Receptor with Non-steroidal Antagonists. New Opportunities for the Development of Potent and Selective Ligands without Off-Target Side Effects” (J Med Chem, 2017).

Sequences of proteins named here, by UniProt entry; tags and fusion partners are left off.
UniProt P08235, whole entry C808S: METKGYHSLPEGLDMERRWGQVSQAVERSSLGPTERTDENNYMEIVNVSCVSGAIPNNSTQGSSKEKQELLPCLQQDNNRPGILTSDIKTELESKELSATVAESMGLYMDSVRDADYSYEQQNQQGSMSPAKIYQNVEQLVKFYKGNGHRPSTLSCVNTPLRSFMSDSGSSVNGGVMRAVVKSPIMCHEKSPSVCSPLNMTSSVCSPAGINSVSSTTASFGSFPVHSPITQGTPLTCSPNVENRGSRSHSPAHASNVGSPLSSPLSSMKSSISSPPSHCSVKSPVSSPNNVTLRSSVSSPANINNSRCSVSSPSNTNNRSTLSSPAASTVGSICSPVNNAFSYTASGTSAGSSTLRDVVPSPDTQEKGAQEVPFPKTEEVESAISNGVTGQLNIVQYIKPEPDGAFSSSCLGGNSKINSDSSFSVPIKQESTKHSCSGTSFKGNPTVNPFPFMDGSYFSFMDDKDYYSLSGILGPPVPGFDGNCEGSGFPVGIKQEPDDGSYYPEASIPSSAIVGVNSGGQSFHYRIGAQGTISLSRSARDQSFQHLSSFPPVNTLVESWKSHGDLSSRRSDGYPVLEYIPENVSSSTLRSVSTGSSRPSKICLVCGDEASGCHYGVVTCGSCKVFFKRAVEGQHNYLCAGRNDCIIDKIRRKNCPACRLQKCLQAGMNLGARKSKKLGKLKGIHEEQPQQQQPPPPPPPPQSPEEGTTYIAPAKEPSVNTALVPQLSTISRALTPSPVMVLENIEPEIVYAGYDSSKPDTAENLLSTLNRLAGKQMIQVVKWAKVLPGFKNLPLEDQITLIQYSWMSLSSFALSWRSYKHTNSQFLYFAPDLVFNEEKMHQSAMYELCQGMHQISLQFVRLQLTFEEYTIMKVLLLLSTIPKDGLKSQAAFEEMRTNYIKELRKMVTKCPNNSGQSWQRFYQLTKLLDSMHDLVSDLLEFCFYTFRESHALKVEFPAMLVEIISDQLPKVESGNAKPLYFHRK

The experiment deals with Mineralocorticoid receptor (Homo sapiens, UniProt P08235, C808S). Kind of experiment: Binding affinity to N-terminal 6His-GST-tagged human MR LBD (727 to 984 residues) harboring C808S mutation expressed in Escherichia coli BL21DE3/corticosterone complex by AlphaScreen assay.

Consider `CC(C)C[C@H](NC(=O)[C@H](CC(C)C)NC(=O)[C@H](CC(C)C)NC(=O)[C@H](CCCCN)NC(=O)[C@H](CCCCN)NC(=O)[C@H](CC(C)C)NC(=O)[C@H](CC(C)C)NC(=O)[C@H](CO)NC(=O)[C@@H]1CCCN1C(=O)[C@H](CCC(=O)O)NC(=O)[C@H](CCC(=O)O)NC(=O)[C@H](C)N)C(=O)N[C@@H](C)C(=O)N1CCC[C@H]1C(=O)N[C@@H](C)C(=O)O`, for which the half-maximal inhibitory concentration (IC50) worked out at 0.9 µM.
`CC[C@H](C)[C@H](NC(=O)[C@H](CCCCN)NC(=O)[C@H](Cc1cnc[nH]1)NC(=O)[C@H](CCCCN)NC(=O)[C@H](CCC(=O)O)NC(=O)[C@@H](N)CCCCN)C(=O)N[C@@H](CC(C)C)C(=O)N[C@@H](Cc1cnc[nH]1)C(=O)N[C@@H](CCCNC(=N)N)C(=O)N[C@@H](CC(C)C)C(=O)N[C@@H](CC(C)C)C(=O)N[C@@H](CCC(N)=O)C(=O)N[C@@H](CC(=O)O)C(=O)N[C@@H](CO)C(=O)N[C@@H](CO)C(=O)O` showed an IC50 of 2.2 µM.
For `CC[C@H](C)[C@H](NC(=O)[C@H](CCCCN)NC(=O)[C@H](Cc1cnc[nH]1)NC(=O)[C@H](CCCNC(=N)N)NC(=O)[C@H](CCC(=O)O)NC(=O)[C@@H](N)[C@@H](C)O)C(=O)N[C@@H](CC(C)C)C(=O)N[C@@H](Cc1cnc[nH]1)C(=O)N[C@@H](CCCNC(=N)N)C(=O)N[C@@H](CC(C)C)C(=O)N[C@@H](CC(C)C)C(=O)N[C@@H](CCC(N)=O)C(=O)N[C@@H](CCC(=O)O)C(=O)N[C@@H](CO)C(=O)N[C@@H](CO)C(=O)O`, the IC50 turned out to be 1.4 µM.
Compound `CC(C)C[C@H](NC(=O)[C@H](CC(C)C)NC(=O)[C@H](Cc1ccc(O)cc1)NC(=O)[C@H](CCCNC(=N)N)NC(=O)[C@H](CC(C)C)NC(=O)[C@H](CC(C)C)NC(=O)[C@H](CCC(N)=O)NC(=O)[C@H](Cc1cnc[nH]1)NC(=O)[C@H](CC(=O)O)NC(=O)[C@H](CCCCN)NC(=O)[C@@H](N)CO)C(=O)N[C@@H](CC(=O)O)C(=O)N[C@@H](CCCCN)C(=O)N[C@@H](CC(=O)O)C(=O)N[C@@H](CCC(=O)O)C(=O)O` returned an IC50 of 1.6 µM.
